Columns and labels:
HLA-B*07:02 = HLA-B*07:02 (Homo sapiens, UniProt P01889); test: fluorescence polarization competitive peptide-binding assay; settings: Experimental Affinity IC50
HLA-A*02:01 = HLA-A*02:01 (Homo sapiens, UniProt P04439, D140Y/D185E/D98H/E176V/E277Q/G131W/G231S/I119V/I121R/I166T/I218V/L300P/L318F/N151K/N90K/P208A/P217A/Q86G/Q94H/R138H/R169H/T345S); type: binding
HLA-A*03:01 = HLA-A*03:01 (Homo sapiens, UniProt P04439); test: p-HLA complex stability, scintillation proximity assay of β2-microglobulin dissociation; type: binding

CC(C)C[C@H](NC(=O)[C@H](C)NC(=O)[C@H](CO)NC(=O)[C@H](CCCCN)NC(=O)CNC(=O)[C@@H](NC(=O)CNC(=O)[C@H](CCCNC(=N)N)NC(=O)[C@H](C)NC(=O)CN)C(C)C)C(=O)O [Peptide 10-19R]
IC50 (HLA-B*07:02): 0.044 µM

LLWNGPMAV
Experimental Stability (t1/2) Mean (HLA-A*02:01): 5.9 h | Half_life, Setp #1 (HLA-A*02:01): 6.7 h | Half_life, Setp #2 (HLA-A*02:01): 5.1 h | k, Setp #1 (HLA-A*02:01): 0.1041 | k, Setp #2 (HLA-A*02:01): 0.1367

VMYNLWKMK
Experimental Stability (t1/2) Mean (HLA-A*03:01): 0.8 h | Half_life, Setp #1 (HLA-A*03:01): 0.9 h | Half_life, Setp #2 (HLA-A*03:01): 0.8 h | k, Setp #1 (HLA-A*03:01): 0.8096 | k, Setp #2 (HLA-A*03:01): 0.8623

From publication PMC8285372, “Biochemical and functional characterization of mutant KRAS epitopes validates this oncoprotein for immunological targeting” (Nature Communications, 2021)
